Results taken from US20250214932A1, “T-TYPE CALCIUM CHANNEL MODULATORS COMPRISING AN AZASPIRONONANE CORE AND METHODS OF USE THEREOF” (Praxis Precision Medicines, Inc., priority 2022, published 2025).

Chains of the proteins cited; added tags and fusions are not shown.
UniProt O43497, whole entry: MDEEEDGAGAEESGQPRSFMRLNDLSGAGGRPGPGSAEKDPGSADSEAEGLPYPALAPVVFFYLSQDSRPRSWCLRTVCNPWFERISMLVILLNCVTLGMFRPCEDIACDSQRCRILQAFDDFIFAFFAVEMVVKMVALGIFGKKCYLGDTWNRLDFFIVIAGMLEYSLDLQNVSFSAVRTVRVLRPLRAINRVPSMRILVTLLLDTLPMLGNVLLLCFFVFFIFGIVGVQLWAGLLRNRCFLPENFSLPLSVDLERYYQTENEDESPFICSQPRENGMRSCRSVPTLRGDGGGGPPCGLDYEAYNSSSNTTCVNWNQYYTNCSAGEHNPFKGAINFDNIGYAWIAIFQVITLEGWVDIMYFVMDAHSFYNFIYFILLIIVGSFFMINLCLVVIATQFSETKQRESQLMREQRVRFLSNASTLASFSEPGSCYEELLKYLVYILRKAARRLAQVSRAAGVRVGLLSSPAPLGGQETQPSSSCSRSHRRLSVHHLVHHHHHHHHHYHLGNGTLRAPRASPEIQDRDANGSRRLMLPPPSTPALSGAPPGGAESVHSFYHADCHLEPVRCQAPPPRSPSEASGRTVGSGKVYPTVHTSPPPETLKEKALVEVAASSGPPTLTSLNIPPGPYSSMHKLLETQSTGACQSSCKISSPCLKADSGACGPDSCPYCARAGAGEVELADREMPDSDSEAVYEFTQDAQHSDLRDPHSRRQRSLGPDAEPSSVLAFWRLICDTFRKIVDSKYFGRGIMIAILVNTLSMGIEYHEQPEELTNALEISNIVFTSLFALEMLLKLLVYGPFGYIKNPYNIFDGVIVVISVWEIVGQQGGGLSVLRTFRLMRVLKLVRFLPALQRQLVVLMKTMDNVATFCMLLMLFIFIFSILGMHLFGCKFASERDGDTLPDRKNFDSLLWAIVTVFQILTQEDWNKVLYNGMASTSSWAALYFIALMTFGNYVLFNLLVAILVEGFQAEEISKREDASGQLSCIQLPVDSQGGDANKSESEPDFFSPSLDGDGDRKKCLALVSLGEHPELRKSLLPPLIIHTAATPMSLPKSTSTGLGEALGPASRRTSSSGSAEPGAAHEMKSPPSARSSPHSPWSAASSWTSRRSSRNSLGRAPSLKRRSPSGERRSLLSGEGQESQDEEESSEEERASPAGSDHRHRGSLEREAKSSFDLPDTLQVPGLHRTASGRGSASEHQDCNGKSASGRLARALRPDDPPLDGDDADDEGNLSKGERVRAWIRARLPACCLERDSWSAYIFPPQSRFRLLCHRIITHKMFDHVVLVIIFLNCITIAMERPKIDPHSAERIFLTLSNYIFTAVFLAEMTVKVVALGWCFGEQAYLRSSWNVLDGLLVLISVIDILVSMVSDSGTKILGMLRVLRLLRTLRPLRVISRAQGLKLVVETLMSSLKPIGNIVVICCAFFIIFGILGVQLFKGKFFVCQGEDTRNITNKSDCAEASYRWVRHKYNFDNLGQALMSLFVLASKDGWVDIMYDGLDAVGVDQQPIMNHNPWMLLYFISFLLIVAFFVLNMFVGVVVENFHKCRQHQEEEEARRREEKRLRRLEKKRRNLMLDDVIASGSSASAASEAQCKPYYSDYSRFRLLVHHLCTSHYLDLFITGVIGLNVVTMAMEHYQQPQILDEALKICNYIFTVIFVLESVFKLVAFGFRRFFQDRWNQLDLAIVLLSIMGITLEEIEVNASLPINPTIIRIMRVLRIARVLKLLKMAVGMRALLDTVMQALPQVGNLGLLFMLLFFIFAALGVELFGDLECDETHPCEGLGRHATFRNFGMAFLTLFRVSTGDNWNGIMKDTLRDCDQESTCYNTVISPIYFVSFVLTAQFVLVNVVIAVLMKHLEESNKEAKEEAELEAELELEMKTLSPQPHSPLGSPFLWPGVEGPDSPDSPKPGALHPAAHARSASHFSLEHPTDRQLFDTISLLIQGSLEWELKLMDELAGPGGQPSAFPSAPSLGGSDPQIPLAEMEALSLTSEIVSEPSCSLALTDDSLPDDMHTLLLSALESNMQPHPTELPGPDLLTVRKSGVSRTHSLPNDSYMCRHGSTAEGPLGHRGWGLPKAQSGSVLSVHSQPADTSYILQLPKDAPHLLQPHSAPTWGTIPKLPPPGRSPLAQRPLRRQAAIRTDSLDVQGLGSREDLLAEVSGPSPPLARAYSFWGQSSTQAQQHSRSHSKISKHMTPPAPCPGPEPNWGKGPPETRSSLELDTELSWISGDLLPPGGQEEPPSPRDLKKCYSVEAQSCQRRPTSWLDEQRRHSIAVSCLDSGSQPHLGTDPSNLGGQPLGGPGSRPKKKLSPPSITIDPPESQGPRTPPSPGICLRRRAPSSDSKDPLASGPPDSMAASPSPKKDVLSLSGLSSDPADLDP

Molecular target: Human Cav3.1 (Homo sapiens (Human), UniProt O43497)
Assay: Human Cav3.1 calcium channel patch clamp assay (SyncroPatch 384PE, HEK-293 natClytin/TASK1+Cav3.1 cell line)

CC(C)(C)NC(=O)CN1CC2(CCC(C(=O)Nc3ccc(F)c(Cl)c3)CC2)C1
Single Point Data % Inhibition (Testing Conc. 1.25 (unit not given), human Cav3.1): 85.622% | IC50 (read-out: Cav3.1 (VDB) IC50, voltage dependent block (VDB)): 310 nM | IC50 (read-out: Human Cav3.1 IC50, patch clamp, HEK-293 natClytin/TASK1+Cav3.1 cells, class symbols): < 1000 nM

Like-named read-outs stand apart in the source and are kept apart here.
